Test system: SCLC cell lines
Experiment: In vitro Synergy Score of combinations with the LSD1 inhibitor in expanded panel of SCLC cell lines, Example 3 / Table 5
Format: cell-based, human
Conditions: for Synergy Scores of SCLC cell lines DMS-114: SCLC cell line DMS-114; for Synergy Scores of SCLC cell lines DMS-114 / Synergy Scores of SCLC cell lines NCI-H69 / Synergy Scores of SCLC cell lines NCI-H187 / Synergy Scores of SCLC cell lines NCI-H446 / Synergy Scores of SCLC cell lines NCI-H510 / Synergy Scores of SCLC cell lines NCI-H526 / Synergy Scores of SCLC cell lines NCI-H1417 / Synergy Scores of SCLC cell lines NCI-H1876 / Synergy Scores of SCLC cell lines NCI-H2171 / Synergy Scores of SCLC cell lines SHP-77: 2nd API combined with (trans)-N1-((1R,2S)-2-phenylcyclopropyl)cyclohexane-1,4-diamine, scores >6.4 considered significant; for Synergy Scores of SCLC cell lines NCI-H69: SCLC cell line NCI-H69; for Synergy Scores of SCLC cell lines NCI-H187: SCLC cell line NCI-H187; for Synergy Scores of SCLC cell lines NCI-H446: SCLC cell line NCI-H446; for Synergy Scores of SCLC cell lines NCI-H510: SCLC cell line NCI-H510; for Synergy Scores of SCLC cell lines NCI-H526: SCLC cell line NCI-H526; for Synergy Scores of SCLC cell lines NCI-H1417: SCLC cell line NCI-H1417; for Synergy Scores of SCLC cell lines NCI-H1876: SCLC cell line NCI-H1876; for Synergy Scores of SCLC cell lines NCI-H2171: SCLC cell line NCI-H2171; for Synergy Scores of SCLC cell lines SHP-77: SCLC cell line SHP-77; for synergy with LSD1 inhibition: combination with (trans)-N1-((1R,2S)-2-phenylcyclopropyl)cyclohexane-1,4-diamine, expanded panel of SCLC cell lines

SMILES	Synergy Scores of SCLC cell lines DMS-114	Synergy Scores of SCLC cell lines NCI-H69	Synergy Scores of SCLC cell lines NCI-H187	Synergy Scores of SCLC cell lines NCI-H446	Synergy Scores of SCLC cell lines NCI-H510	Synergy Scores of SCLC cell lines NCI-H526	Synergy Scores of SCLC cell lines NCI-H1417	Synergy Scores of SCLC cell lines NCI-H1876	Synergy Scores of SCLC cell lines NCI-H2171	Synergy Scores of SCLC cell lines SHP-77	synergy with LSD1 inhibition
CCCc1cc(C)[nH]c(=O)c1CNC(=O)c1cc(-c2ccnc(N3CCN(C)CC3)c2)cc2c1cnn2C(C)C [GSK343, N-[(1,2-dihydro-6-methyl-2-oxo-4-propyl-3-pyridinyl)methyl]-1-(1-methylethyl)-6-[2-(4-methyl-1-piperazinyl)-4-pyridinyl]-1H-indazole-4-carboxamide]	0.05	0.81	0.15	0.01	4.25	2.48	0.24	0.81	0.36	0.13	–
COc1cc2c(cc1-c1c(C)noc1C)ncc1[nH]c(=O)n([C@H](C)c3ccccn3)c12 [GSK1210151A, 7,3,5-dimethyl-4-isoxazolyl-1,3-dihydro-8-methoxy-1-[1R-1-(2-pyridinyl)ethyl]-2H-imidazo[4,5-c]quinolin-2-one]	0.67	10.38	1.77	0.32	15.35	12.65	15.13	11.42	10.11	0.66	highly synergistic
CC(=O)N1c2ccc(-c3ccc(C(=O)O)cc3)cc2[C@H](Nc2ccc(Cl)cc2)C[C@@H]1C [GSK1324726A, 4-[(2S,4R)-1-acetyl-4-[(4-chlorophenyl)amino]-l,2,3,4-tetrahydro-2-methyl-6-quinolinyl]-benzoic acid]	1.22	10.17	2.66	1.25	21.32	12.18	21.84	15.98	9.12	0.72	highly synergistic
Cc1c(C(=O)Nc2ccc(N3C[C@@H](C)O[C@@H](C)C3)nc2)cccc1-c1ccc(OC(F)(F)F)cc1 [LDE225, N-[6-[(2S,6R)-2,6-Dimethylmorpholin-4-yl]pyridin-3-yl]-2-methyl-3-[4-(trifluoromethoxy)phenyl]benzamide]	0.08	0.78	0.73	0.02	5.81	2.17	1.01	0.57	0.34	0.53	–
C[C@H](NC(=O)CCC(F)(F)F)C(=O)N[C@@H]1C(=O)N(CCO)c2ncccc2-c2ccccc21 [LY-3039478, N-[(1S)-2-[[(7S)-6,7-dihydro-5-(2-hydroxyethyl)-6-oxo-5H-pyrido[3,2-a][3]benzazepin-7-yl]amino]-1-methyl-2-oxoethyl]-4,4,4-trifluoro-butanamide]	0.00	4.94	0.47	0.28	0.00	7.90	0.21	0.19	0.30	0.12	–
O=C(O)CC[C@H]1CC[C@@](c2cc(F)ccc2F)(S(=O)(=O)c2ccc(Cl)cc2)CC1 [MK-0752, cis-4-[(4-chlorophenyl)sulfonyl]-4-(2,5-difluorophenyl)-cyclohexanepropanoic acid]	0.04	3.88	0.32	0.43	0.71	6.03	0.15	0.69	0.17	0.03	–
Cc1cc(/N=N/c2ccc(S(=O)(=O)Nc3ccccn3)cc2)c(N)cc1O [MS 436, 4-[(1E)-2-(2-amino-4-hydroxy-5-methylphenyl)diazenyl]-N-2-pyridinyl-benzenesulfonamide]	0.18	3.82	0.06	0.42	5.52	15.84	12.37	5.74	1.37	0.23	highly synergistic
Cc1sc2c(c1C)C(c1ccc(Cl)cc1)=N[C@@H](CC(=O)Nc1ccc(O)cc1)c1nnc(C)n1-2 [OTX015, (6S)-4-(4-chlorophenyl)-N-(4-hydroxyphenyl)-2,3,9-trimethyl-6H-Thieno[3,2-f][l,2,4]triazolo[4,3-a][1,4]diazepine-6-acetamide]	0.10	8.65	0.88	0.44	11.52	16.72	14.26	14.88	5.30	0.78	highly synergistic
COC1=CC(c2cc3ccccc3[nH]2)=NC1=Cc1[nH]c(C)cc1C [Obatoclax, 2-(2-((3,5-Dimethyl-1H-pyrrol-2-yl)methylene)-3-methoxy-2H-pyrrol-5-yl)-1H-indole]	1.87	6.01	0.81	2.57	6.31	8.19	2.36	6.11	0.61	4.76	highly synergistic
Br.Br.CCC[C@H](N[C@H]1CCc2cc(F)cc(F)c2C1)C(=O)Nc1cn(C(C)(C)CNCC(C)(C)C)cn1 [PF-3084014, (2S)-2-[[(2S)-6,8-Difluoro-1,2,3,4-tetrahydro-2-naphthalenyl]amino]-N-[1-[2-[(2,2-dimethylpropyl)amino]-1,1-dimethylethyl]-1H-imidazol-4-yl]pentanamide dihydrobromide]	0.02	1.53	0.10	1.31	0.03	8.64	0.02	0.25	1.02	0.19	–
CC(C)c1ccccc1Cc1cc(C(=O)Nc2ccc(S(=O)(=O)c3ccccc3C(C)(C)C)cc2)c(O)c(O)c1O [TW-37, N-[4-[[2-(1,1-dimethylethyl)phenyl]sulfonyl]phenyl]-2,3,4-trihydroxy-5-[[2-(1-methylethyl)phenyl]methyl]-benzamide]	0.59	2.23	0.57	0.28	6.95	3.60	8.08	0.86	0.72	0.45	highly synergistic
CN(C(=O)c1ccc(F)cc1C(F)(F)F)C1CCN(c2nnc(-c3ccnn3C)c3ccccc23)CC1 [Taladegib, 4-fluoro-N-methyl-N-[1-[4-(1-methyl-1H-pyrazol-5-yl)-1-phthalazinyl]-4-piperidinyl]-2-(trifluoromethyl)-benzamide]	0.10	2.35	0.09	0.01	2.50	3.66	0.19	1.64	0.11	0.19	–
